# Earlier results in patent US20260337190A1, “CRYSTAL FORM OF PYRIDINOPYRIMIDINONE COMPOUND, ACID SALT THEREOF, CRYSTAL FORM OF ACID SALT THEREOF, AND USE” (Wuhan Humanwell Innovative Drug Research and Development …, priority 2022, published 2026).
# Key:
# SOS1 = conditions: cited from earlier work
# cancer cells = conditions: cited from earlier work
structure (smiles),measurement,setting,value
COc1cc2nc(C)nc(N[C@H](C)c3cc(N)cc(C(F)(F)F)c3)c2cc1O[C@H]1CCOC1 [BI-3406],formation of KRAS-GTP,SOS1,reduce the formation of KRAS-GTP
same,interaction of SOS1 with KRAS,SOS1,prevent its interaction with KRAS
same,KRAS-driven proliferation of various cancer cells,cancer cells,inhibit KRAS-driven proliferation of various cancer cells
